The values below come from publication PMC7961853 (Journal of medicinal chemistry, 2020).

By UniProt entry, the sequences of proteins in these tests, tags left out. Residues count along the entry.
UniProt Q00961, 20-1237: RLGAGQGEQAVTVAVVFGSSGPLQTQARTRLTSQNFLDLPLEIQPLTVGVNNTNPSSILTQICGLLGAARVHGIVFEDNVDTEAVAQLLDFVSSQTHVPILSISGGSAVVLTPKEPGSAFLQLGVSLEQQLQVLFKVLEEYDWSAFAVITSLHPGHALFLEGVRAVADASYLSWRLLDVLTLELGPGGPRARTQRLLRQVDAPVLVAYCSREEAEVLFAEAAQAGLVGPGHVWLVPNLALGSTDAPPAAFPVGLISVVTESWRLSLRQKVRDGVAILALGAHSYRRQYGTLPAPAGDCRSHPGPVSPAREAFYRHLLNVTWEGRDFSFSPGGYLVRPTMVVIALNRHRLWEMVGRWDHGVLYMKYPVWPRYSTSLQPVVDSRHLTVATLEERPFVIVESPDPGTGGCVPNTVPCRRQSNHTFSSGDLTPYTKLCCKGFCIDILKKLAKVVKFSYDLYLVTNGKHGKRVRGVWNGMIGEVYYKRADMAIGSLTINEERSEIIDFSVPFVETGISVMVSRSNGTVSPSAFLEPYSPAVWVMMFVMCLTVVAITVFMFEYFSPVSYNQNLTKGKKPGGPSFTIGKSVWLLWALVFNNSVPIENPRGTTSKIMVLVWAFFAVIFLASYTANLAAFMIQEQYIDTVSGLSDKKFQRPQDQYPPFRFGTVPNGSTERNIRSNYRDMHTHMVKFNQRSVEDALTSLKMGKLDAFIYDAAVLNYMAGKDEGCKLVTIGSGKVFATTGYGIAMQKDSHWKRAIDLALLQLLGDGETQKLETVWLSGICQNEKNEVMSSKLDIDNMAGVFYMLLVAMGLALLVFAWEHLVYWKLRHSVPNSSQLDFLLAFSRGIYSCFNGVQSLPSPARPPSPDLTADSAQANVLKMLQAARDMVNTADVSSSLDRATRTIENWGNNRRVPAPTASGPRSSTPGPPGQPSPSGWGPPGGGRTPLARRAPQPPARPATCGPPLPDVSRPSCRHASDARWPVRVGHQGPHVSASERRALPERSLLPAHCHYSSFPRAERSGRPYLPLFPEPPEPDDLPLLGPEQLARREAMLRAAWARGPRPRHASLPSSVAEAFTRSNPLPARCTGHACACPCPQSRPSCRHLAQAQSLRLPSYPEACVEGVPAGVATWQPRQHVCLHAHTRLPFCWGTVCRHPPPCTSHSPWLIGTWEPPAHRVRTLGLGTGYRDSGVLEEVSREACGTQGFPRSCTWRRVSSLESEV
UniProt Q62645, 28-1323: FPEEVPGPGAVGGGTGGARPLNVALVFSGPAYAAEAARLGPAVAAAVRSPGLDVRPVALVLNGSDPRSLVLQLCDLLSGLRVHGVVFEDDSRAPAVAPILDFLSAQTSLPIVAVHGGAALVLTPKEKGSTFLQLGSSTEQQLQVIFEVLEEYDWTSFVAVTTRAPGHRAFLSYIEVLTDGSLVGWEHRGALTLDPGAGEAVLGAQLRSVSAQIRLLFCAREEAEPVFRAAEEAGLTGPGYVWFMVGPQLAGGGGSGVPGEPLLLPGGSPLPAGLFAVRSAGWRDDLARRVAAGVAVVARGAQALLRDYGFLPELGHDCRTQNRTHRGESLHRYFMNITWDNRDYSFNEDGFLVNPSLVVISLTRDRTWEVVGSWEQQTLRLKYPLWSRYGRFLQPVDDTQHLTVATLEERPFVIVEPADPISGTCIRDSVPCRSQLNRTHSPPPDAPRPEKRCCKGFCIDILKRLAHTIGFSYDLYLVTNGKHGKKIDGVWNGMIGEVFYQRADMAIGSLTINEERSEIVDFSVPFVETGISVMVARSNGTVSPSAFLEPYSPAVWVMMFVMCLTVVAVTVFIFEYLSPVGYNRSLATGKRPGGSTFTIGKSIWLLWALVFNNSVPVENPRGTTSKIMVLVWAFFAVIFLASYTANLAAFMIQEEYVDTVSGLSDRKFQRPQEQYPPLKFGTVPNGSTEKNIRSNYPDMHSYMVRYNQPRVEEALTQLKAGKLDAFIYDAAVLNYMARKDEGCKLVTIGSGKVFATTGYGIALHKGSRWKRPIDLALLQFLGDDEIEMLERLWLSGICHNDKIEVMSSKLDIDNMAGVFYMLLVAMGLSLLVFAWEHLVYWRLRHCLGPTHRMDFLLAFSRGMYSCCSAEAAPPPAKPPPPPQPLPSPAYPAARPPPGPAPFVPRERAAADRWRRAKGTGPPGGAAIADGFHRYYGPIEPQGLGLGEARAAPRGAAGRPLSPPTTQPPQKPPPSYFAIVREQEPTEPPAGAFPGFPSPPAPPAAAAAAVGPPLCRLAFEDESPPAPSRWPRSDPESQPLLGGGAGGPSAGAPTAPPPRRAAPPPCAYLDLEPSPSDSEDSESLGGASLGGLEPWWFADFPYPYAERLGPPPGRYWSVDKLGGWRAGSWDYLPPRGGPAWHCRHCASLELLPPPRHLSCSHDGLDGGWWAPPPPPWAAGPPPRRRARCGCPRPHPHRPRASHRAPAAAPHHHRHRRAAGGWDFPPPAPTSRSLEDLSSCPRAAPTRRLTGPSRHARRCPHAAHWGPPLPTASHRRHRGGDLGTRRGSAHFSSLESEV

The target in one test is GluN1/GluN2C (Rattus norvegicus, UniProt Q00961). The note with it: LLE = p(doubling conc.) − cLogP.
The target of the next test is GluN1/GluN2D (Rattus norvegicus, UniProt Q62645). The settings on record: LLE = p(doubling conc.) − cLogP.
Test [1] relates to GluN2C- and GluN2D-containing receptors. The test can be described thus: TEVC recordings, values stated in text jointly for GluN2C/D. The note with it: value or range over GluN2C and GluN2D. It counts as cell-based, rat.

As to `COc1ccc(OCC2c3ccc(OC)cc3CC(=O)N2CCCC(F)(F)F)cc1` (stereo not shown) [12f, 6-Methoxy-1-((4-methoxyphenoxy)methyl)-2-(4,4,4-trifluorobutyl)-1,2-dihydroisoquinolin-3(4H)-one], the “LLE GluN2C” value on GluN1/GluN2C was determined as 0.9. In addition, at GluN1/GluN2D, the “LLE GluN2D” value turned out to be 1.0.

For `COc1ccc(OCC2c3sccc3CCN2C(=O)c2cccc(Cl)c2)cc1` (stereo not shown) [25a, (3-Chlorophenyl)(7-((4-methoxyphenoxy)methyl)-4,7-dihydrothieno[2,3-c]pyridin-6(5H)-yl)methanone], the “pEC50 at GluN2C/D” value in test [1] amounted to 5.4. The “LLE GluN2C” value on GluN1/GluN2C is on record as −0.3. Also, the “LLE GluN2D” value on GluN1/GluN2D amounted to 0.0.

On to `COc1ccc(OCC2c3sccc3CCN2C(=O)c2ccc(Cl)s2)cc1` (stereo not shown) [25b, (5-Chlorothiophen-2-yl)(7-((4-methoxyphenoxy)methyl)-4,7-dihydrothieno[2,3-c]pyridin-6(5H)-yl)methanone], for which the “LLE GluN2C” value at GluN1/GluN2C was −0.1. Further, the “LLE GluN2D” value on GluN1/GluN2D worked out at 0.2.

Take `COc1ccc(OCC2c3sccc3CCN2C(=O)/C=C/C(F)(F)F)cc1` (stereo not shown) [25c, (E)-4,4,4-Trifluoro-1-(7-((4-methoxyphenoxy)methyl)-4,7-dihydrothieno[2,3-c]pyridin-6(5H)-yl)but-2-en-1-one]: in test [1], the “pEC50 at GluN2C/D” value is given as 4.8–4.9. The “LLE GluN2C” value on GluN1/GluN2C is recorded as 1.2. The “LLE GluN2D” value at GluN1/GluN2D was found to be 1.3.

Consider `COc1ccc(OCC2c3cc(OC)sc3CCN2C(=O)c2cccc(Cl)c2)cc1` (stereo not shown) [25d, (3-Chlorophenyl)(2-methoxy-4-((4-methoxyphenoxy)methyl)-6,7-dihydrothieno[3,2-c]pyridin-5(4H)-yl)methanone], for which, on GluN1/GluN2C, the “LLE GluN2C” value is listed as −1.1. Besides, the “LLE GluN2D” value at GluN1/GluN2D is −1.2.

As to `COc1ccc(OCC2c3occc3CCN2C(=O)c2cccc(Cl)c2)cc1` (stereo not shown) [25f, (3-Chlorophenyl)(7-((4-methoxyphenoxy)methyl)-4,7-dihydrofuro[2,3-c]pyridin-6(5H)-yl)methanone], the “LLE GluN2C” value on GluN1/GluN2C is recorded as 0.3. For the same compound, the “LLE GluN2D” value on GluN1/GluN2D is recorded as 0.4.

As to `COc1ccc(OCC2c3ccsc3CCN2C(=O)c2cccc(Cl)c2)cc1` (stereo not shown) [25h, (3-Chlorophenyl)(4-((4-methoxyphenoxy)methyl)-6,7-dihydrothieno[3,2-c]pyridin-5(4H)-yl)methanone], the “LLE GluN2C” value at GluN1/GluN2C is −0.1. The “LLE GluN2D” value at GluN1/GluN2D is recorded as −0.2.

Regarding `COc1ccc(OCC2c3cccn3CCN2C(=O)c2cccc(C(F)(F)F)c2)cc1` (stereo not shown) [25j, (1-((4-Methoxyphenoxy)methyl)-3,4-dihydropyrrolo[1,2-a]-pyrazin-2(1H)-yl)(3-(trifluoromethyl)phenyl)methanone], the “LLE GluN2C” value at GluN1/GluN2C turned out to be 1.0. Besides, the “LLE GluN2D” value on GluN1/GluN2D is reported as 0.5.

`COc1ccc(OCC2c3cccn3CC(=O)N2Cc2cccc(C(F)(F)F)c2)cc1` (stereo not shown) [31a, 1-((4-Methoxyphenoxy)methyl)-2-(3-(trifluoromethyl)benzyl)-1,2-dihydropyrrolo[1,2-a]pyrazin-3(4H)-one]: the “LLE GluN2C” value on GluN1/GluN2C is 0.7. On GluN1/GluN2D, the “LLE GluN2D” value was 0.9.

Take `COc1ccc(OC[C@H]2c3cccn3CCN2C(=O)c2cccc(Cl)c2)cc1` [R-(+)-25i]: on GluN1/GluN2C, the “LLE GluN2C” value is 1.2. Also, the “LLE GluN2D” value on GluN1/GluN2D is 1.3.

Consider `COc1ccc(OC[C@H]2c3cccn3CCN2C(=O)c2cccc(C(F)(F)F)c2)cc1` [R-(+)-25j], for which, on GluN1/GluN2C, the “LLE GluN2C” value came to 1.2. For the same compound, at GluN1/GluN2D, the “LLE GluN2D” value turned out to be 1.3.

Turning to `COc1ccc(OC[C@H]2c3cccn3CC(=O)N2Cc2cccc(C(F)(F)F)c2)cc1` [R-(+)-31a], the “LLE GluN2C” value at GluN1/GluN2C is reported as 0.8. For the same compound, the “LLE GluN2D” value on GluN1/GluN2D turned out to be 1.0.

As to `COc1ccc(OCC2c3ccccc3CCN2C(=O)c2cccc(Cl)c2)cc1` (stereo not shown) [compound 36], the “LLE GluN2C” value on GluN1/GluN2C was −1.0/−1.0. Also, the “LLE GluN2D” value at GluN1/GluN2D is −1.0/−1.0.

One may read the pEC50 as the negative decadic logarithm of the EC50, by convention in mol/L.
